Assay results taken from US6022696A, “Methods of identifying agonists or antagonists of angiotensin IV” (Washington State University Research Foundation, priority 1998, dated 2000).

Biological target: T1, AT4 receptor (Cavia porcellus, UniProt H0VNM7)
T1 sequence (H0VNM7 1-1025): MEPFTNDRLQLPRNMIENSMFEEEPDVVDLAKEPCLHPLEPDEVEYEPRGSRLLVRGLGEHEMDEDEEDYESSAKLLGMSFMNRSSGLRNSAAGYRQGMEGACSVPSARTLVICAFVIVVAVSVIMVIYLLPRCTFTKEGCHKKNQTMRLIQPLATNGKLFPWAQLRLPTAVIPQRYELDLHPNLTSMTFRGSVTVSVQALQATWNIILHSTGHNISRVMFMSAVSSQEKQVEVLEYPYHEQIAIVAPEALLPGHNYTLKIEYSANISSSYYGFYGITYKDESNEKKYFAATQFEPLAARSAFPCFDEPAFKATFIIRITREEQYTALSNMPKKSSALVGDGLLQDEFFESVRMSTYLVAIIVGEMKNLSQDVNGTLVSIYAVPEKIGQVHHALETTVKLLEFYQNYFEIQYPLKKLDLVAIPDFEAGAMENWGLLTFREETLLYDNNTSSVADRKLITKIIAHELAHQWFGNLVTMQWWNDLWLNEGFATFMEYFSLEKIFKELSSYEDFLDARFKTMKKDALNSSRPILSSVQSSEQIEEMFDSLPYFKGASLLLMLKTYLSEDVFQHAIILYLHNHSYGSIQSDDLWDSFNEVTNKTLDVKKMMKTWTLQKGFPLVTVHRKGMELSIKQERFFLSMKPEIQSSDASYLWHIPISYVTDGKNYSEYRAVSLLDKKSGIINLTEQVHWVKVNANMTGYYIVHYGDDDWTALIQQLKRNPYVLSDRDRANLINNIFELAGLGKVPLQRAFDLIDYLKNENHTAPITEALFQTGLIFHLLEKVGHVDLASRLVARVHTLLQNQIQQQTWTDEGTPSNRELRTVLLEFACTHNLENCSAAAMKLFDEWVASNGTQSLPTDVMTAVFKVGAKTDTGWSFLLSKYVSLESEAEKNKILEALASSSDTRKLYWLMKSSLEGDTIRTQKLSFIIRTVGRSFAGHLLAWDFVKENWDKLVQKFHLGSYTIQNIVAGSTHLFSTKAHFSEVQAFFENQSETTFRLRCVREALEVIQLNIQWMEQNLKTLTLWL
Assay type: binding, guinea pig
Details: read-out: Kd (nonbinding peptides)

Arg8 -Vasopressin gave a Kd of over 1000 nM.

Neuropeptide Y gave a Kd of over 1000 nM.
